Test results from patent publication US20080014585A1, “SYNERGISTIC ACTIVATION OF REGULATORY ELEMENTS BY REL PROTEINS AND A STEROID RECEPTOR” (N.V. Organon, priority 2000, published 2008).

Chains of the proteins cited; added tags and fusions are not shown.
UniProt Q92731, whole entry: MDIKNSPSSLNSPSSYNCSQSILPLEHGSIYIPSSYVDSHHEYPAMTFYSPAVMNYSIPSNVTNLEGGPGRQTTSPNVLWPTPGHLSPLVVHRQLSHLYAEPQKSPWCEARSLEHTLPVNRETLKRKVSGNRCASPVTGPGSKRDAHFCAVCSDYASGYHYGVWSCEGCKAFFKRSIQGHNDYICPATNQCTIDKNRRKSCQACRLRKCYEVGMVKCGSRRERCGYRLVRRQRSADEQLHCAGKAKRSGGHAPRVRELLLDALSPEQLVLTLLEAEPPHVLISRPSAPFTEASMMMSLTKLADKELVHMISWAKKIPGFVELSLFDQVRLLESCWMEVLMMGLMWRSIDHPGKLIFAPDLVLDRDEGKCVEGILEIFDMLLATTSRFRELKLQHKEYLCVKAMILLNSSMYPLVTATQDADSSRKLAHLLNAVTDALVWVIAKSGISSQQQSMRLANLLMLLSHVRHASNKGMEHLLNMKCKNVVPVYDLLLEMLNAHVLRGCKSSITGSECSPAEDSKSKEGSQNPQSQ

Experiments:
[1] = target: T1, human ERβ (Homo sapiens, UniProt Q92731); type: cell-based; settings: COS-1 cells, -901luc, 10^−8 M E2 for 24 h
T1 construct: expressed in transfected cells; host or cells: COS-1 (monkey)

[2] = target: T1, human ERβ; type: cell-based; settings: COS-1 cells, -901luc, 10^−8 M E2 for 24 h; remark: listed apart in the source

17β-estradiol
induction of 5-HT1A receptor promoter activity by ERβ cotransfected with NF-κB [1]: no effect | effect on 5-HT1A promoter activity, ERβ cotransfected, no NF-κB [2]: hardly had an effect
